Experimental data as given in paper PMC6408514.

The chains behind the UniProt entries cited, without tags or fusion partners. Residues count along the entry.
UniProt P02786, 121-760: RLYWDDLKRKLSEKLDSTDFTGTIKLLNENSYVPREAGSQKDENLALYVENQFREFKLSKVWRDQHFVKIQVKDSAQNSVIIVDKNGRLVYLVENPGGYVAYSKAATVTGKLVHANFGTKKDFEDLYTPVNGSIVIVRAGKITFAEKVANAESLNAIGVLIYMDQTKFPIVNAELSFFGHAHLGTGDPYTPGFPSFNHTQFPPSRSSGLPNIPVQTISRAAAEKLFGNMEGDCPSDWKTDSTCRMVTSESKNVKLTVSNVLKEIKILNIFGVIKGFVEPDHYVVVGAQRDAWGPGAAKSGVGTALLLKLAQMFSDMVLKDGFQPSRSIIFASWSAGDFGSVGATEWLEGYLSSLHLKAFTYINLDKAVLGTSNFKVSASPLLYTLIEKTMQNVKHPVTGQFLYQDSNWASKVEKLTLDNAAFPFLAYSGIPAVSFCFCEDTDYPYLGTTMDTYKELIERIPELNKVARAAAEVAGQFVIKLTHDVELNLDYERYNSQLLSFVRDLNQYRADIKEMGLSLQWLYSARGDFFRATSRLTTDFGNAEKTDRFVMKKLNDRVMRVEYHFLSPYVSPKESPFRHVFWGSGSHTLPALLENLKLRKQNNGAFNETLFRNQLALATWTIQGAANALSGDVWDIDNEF

Molecular target: human transferrin receptor 1 (CD71) ectodomain, residues 121-760, octa-histidine tagged (human) (UniProt P02786)
Test: SPR; Biacore X100; His-tagged CD71 immobilised on an NTA sensor chip (22 µg/mL, 60 s), ferritins as analytes 1000-62.5 µg/mL (multi-kinetic mode), 25 °C, 30 µL/min, 10 mM PBS pH 7.4; fitted with a heterogeneous analyte model (Supplementary Table 4) or a 1:1 model (Supplementary Table 5)

| pKd | koff | kon | Substance |
| --- | --- | --- | --- |
| 6.85 | 0.0018 s⁻¹ | 170000 M⁻¹ s⁻¹ | human H-chain ferritin mutant A (Q14A/D15A/R22A) (natural protein) |
| 5.89 | 0.00155 s⁻¹ | 1200 M⁻¹ s⁻¹ | human H-chain ferritin mutant C (Q14A/D15A/R22A/F81A/Q83A) (natural protein) |
| 6.89 | 0.0089 s⁻¹ | 66000 M⁻¹ s⁻¹ | human H-chain ferritin mutant B (F81A/Q83A) (natural protein) |

pKd: −log10 of the molar value.
